Molecular target: Uracil-DNA glycosylase (Human herpesvirus 1) (UniProt P10186)
Experiment: Inhibitory potency against HSV-1 UDG (Herpes Simplex virus type-I Uracil DNA glycosylase)

SMILES: CCCCc1ccc(Nc2cc(=O)[nH]c(=O)[nH]2)cc1 [6-(4-Butyl-phenylamino)-1H-pyrimidine-2,4-dione]
- IC50: 150 µM
